Laboratory results from ChEMBL document CHEMBL1126412, “RP 70676: A potent systematically available inhibitor of acyl-CoA:cholesterol O-acyl transferase (ACAT)” (Bioorg Med Chem Lett, 1992).

Tests used:
[1] = biological target: T1, Acyl-CoA:cholesterol acyltransferase (Oryctolagus cuniculus, UniProt Q95214); assay: Concentration required for the inhibition of rabbit arterial Acyl coenzyme A:cholesterol acyltransferase
T1 sequence (Q95214 whole entry): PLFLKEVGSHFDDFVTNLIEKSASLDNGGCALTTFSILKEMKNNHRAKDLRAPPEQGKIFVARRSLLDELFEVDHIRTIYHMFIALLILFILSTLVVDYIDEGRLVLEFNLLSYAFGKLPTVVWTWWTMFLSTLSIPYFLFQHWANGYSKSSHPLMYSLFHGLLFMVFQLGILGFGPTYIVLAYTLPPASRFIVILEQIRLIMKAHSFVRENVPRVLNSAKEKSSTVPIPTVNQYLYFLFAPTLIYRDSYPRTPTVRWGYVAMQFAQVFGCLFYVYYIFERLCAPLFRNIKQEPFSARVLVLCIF

[2] = biological target: T1, Acyl-CoA:cholesterol acyltransferase; assay: Concentration required for the inhibition of Cholesterol O-acyl transferase from cholesterol fed rabbit adrenal
[3] = biological target: T1, Acyl-CoA:cholesterol acyltransferase; assay: Concentration required for the inhibition of Cholesterol O-acyl transferase from cholesterol fed rabbit artery; format: tissue-based
[4] = biological target: T1, Acyl-CoA:cholesterol acyltransferase; assay: Concentration required for the inhibition of Cholesterol O-acyl transferase from cholesterol fed rabbit gut
[5] = biological target: T1, Acyl-CoA:cholesterol acyltransferase; assay: Concentration required for the inhibition of cholesterol O-acyl transferase (ACAT) from cholesterol fed rabbit liver

IC50 [1]: 40 nM | IC50 [2]: 79 nM | IC50 [3]: 40 nM | IC50 [4]: 119 nM | IC50 [5]: 44 nM
SMILES: Cc1cc(C)n(CCCCCSc2nc(-c3ccccc3)c(-c3ccccc3)[nH]2)n1
